ChEMBL document CHEMBL3259577, “Antagonists of the kappa opioid receptor” (Bioorg Med Chem Lett, 2014)

Legend:
[1] = organism: Homo sapiens; assay: Selectivity ratio of IC50 for mu opioid receptor (unknown origin) by HCS assay to IC50 for kappa opioid receptor (unknown origin) by DRx assay
[2] = organism: Homo sapiens; assay: Selectivity ratio of IC50 for delta opioid receptor (unknown origin) by HCS assay to IC50 for kappa opioid receptor (unknown origin) by DRx assay

- Ratio IC50 [1]: > 10000
- Ratio IC50 [2]: > 10000
SMILES: COc1ccc(N2CCN(CCCNC(=O)Cn3c(=O)c4cccn4c4c(C)ccnc43)CC2)cc1
